The text below walks through data of ChEMBL document CHEMBL1153304, “2,4-Diaminopyridine delta-opioid receptor agonists and their associated hERG pharmacology” (Bioorg Med Chem Lett, 2009).

The experiment addresses Delta-type opioid receptor (Homo sapiens, UniProt P41143). As to the kind of experiment: Agonist activity at delta opioid receptor expressed in CHO cells assessed as inhibition of forskolin-stimulated cAMP production by ALPHAscreen assay. For orientation: Cyclic AMP is a second messenger, typically raised through Gs and lowered through Gi signalling.
Broadly, the EC50 is the concentration that produces a half-maximal response. For `Nc1ccnc(N2CCC(n3c(=O)n(-c4ccccc4)c4cccnc43)CC2)c1`, the EC50 amounted to 16 nM.
Consider `COc1ccc(-n2c(=O)n(C3CCN(c4cc(N)ccn4)CC3)c3ncccc32)cc1`, for which the EC50 worked out at 3 nM.
With `Nc1ccnc(N2CCC(n3c(=O)n(CC4CC4)c4cccnc43)CC2)c1` the figure was 41 nM; with `Nc1ccnc(N2CCC(n3c(=O)n(Cc4ccccc4)c4cccnc43)CC2)c1`, 28 nM.
